Antibody variant affinities, Ab-14 light chain, assay B

Target: peptide PDVDLGDISGINAS, taken from heptad repeat 2 (HR2) of SARS-CoV-2 spike.

Ab-14 is the parent antibody, in scFv form: VH, then a 15-residue (Gly4Ser)3 linker, then VL. The heavy chain is unchanged in all variants.
VH: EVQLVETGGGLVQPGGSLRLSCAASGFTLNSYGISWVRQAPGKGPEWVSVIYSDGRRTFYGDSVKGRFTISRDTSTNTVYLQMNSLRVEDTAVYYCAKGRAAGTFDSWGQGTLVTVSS
VL: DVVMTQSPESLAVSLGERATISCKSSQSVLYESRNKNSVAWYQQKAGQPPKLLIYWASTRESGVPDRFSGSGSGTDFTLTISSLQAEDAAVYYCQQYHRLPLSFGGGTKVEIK

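The parent was found by panning a naive human phage display library on the peptide. Designed CDR sequences, proposed from the first random library and measured here. Group labels follow the data file (Ctrl: baseline library sampled from a position-specific scoring matrix, with some repeated check sequences; GP: Gaussian process model; HC: hill climbing; Gen: genetic algorithm; a sequence that several methods proposed may carry one label only). The scFvs were displayed on barcoded MATa yeast, the peptide on MATalpha yeast. Pairs that bind mate more often; barcode pairs of the diploids are counted by sequencing. Each replicate has its own calibration line, from reference interactions of the BCL2 family. Each pool was mated in six replicate cultures.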

Each variant's VL is given in full. This list holds designs with at most six substitutions. Kd is apparent (estimated from mating counts) and averaged on the log scale over replicates with a signal. Smaller is tighter. "no signal" means that the variant was in the library but no mating with the target was seen in any replicate; the authors take this as a sign of poor binding, and no number exists. As a blank, each scFv also met three strains without target: over all light chain designs, 4% of these pairings were detected, typically at 430 nM and seldom below 38 nM. A sequence measured in both rounds can read differently, since the two assays cover different ranges. The authors averaged sequences with at least three values out of six and counted those with two or fewer as poor binders.

VL,group,apparent Kd,detected
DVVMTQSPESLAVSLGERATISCKSLWSVLYESNNKNSVAWYQQKAGQPPKLLIYQASTREDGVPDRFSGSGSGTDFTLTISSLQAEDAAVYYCQQYHRLPLSFGGGTKVEIK,GP_HC,6.1 nM,6/6
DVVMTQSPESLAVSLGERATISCKSSQSVDMESRNLNSVAWYQQKAGQPPKLLIYWASTRESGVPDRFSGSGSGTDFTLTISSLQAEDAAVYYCQQYHRLPLSFGGGTKVEIK,Ctrl,no signal,0/6
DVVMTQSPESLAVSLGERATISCKLSQSVLYESRNFNSVAWYQQKAGQPPKLLIYNASTRCSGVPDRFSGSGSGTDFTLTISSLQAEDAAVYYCQQYHRLPLSFGGGTKVEIK,GP_Gen,2.2 nM,6/6
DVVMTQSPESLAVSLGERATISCMSSQSVLYESRNKNSVAWYQQKAGQPPKLLIYEISTRESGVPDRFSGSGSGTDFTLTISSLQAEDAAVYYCQQYHRMPLSFGGGTKVEIK,Ctrl,21 nM,6/6
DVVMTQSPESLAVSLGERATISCHLSQSMLYESRNKNSVAWYQQKAGQPPKLLIYNASTRESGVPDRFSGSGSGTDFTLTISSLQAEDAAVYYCQQYHRLPLSFGGGTKVEIK,GP_Gen,390 pM,6/6
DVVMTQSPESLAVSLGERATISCKALQSVLYESRNKISVAWYQQKAGQPPKLLIYWASTRESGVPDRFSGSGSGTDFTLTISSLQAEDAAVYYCQQYHRLPLSFGGGTKVEIK,Ctrl,2.0 nM,3/6
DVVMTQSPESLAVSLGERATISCKSSQSVLYESRNKNSVAWYQQKAGQPPKLLIYWASIRFSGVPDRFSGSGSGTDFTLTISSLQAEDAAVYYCQQYARLPLSFGGGTKVEIK,Ctrl,no signal,0/6
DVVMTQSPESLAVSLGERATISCKSPQSVLYESRNKNSVAWYQQKAGQPPKLLIYEASTREDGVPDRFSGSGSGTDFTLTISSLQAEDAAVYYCQSYHRLPLSFGGGTKVEIK,GP_HC,1.5 nM,6/6
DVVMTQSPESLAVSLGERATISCKVSQSVLYESRNKNAVAWYQQKAGQPPKLLIYGASTRESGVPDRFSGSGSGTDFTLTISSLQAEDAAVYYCQQYHRLPLSFGGGTKVEIK,GP_HC,1.0 nM,6/6
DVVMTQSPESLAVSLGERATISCHSSPSVLYESRNGNSVAWYQQKAGQPPKLLIYNASTREDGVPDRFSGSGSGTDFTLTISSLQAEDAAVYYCQQYHRLPLSFGGGTKVEIK,GP_HC,1.8 nM,6/6
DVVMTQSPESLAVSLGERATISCKVSWSVLYESHNKNSVAWYQQKAGQPPKLLIYNASTRMSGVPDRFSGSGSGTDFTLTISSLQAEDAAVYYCQQYHRLPLSFGGGTKVEIK,GP_HC,870 pM,6/6
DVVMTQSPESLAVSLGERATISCKSSQSVLYESRLKNSVAWYQQKAGQPPKLLIYWATTRESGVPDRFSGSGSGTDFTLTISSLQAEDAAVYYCQQYHRLPLFFGGGTKVEIK,Ctrl,no signal,0/6
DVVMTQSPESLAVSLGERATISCQSSQSALYESRNKNSVAWYQQKAGQPPKLLIYGASTRESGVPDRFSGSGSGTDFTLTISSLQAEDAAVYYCQQYHRLPLSFGGGTKVEIK,GP_HC,3.2 nM,6/6
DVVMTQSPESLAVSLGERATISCKSSQSVLYESRNKNSVAWYQQKAGQPPKLLIYEASTRETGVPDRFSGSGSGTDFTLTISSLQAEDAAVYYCQQYDRLPLSFGGGTKVEIK,Ctrl,7.4 nM,6/6
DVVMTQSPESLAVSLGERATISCKSSQSALFASQNKNSVAWYQQKAGQPPKLLIYQASTRESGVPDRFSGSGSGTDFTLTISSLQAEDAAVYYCQQYHRLPLSFGGGTKVEIK,Ctrl,24 nM,6/6
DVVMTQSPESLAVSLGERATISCKSSHSVLAESRNKNQVAWYQQKAGQPPKLLIYWASTRESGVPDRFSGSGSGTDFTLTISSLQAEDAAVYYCQQYHRFPLSFGGGTKVEIK,Ctrl,74 nM,4/6

The first 3 variants above that were never detected:

VL,group,apparent Kd,detected
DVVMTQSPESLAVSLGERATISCKSSQSVDMESRNLNSVAWYQQKAGQPPKLLIYWASTRESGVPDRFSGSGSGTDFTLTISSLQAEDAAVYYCQQYHRLPLSFGGGTKVEIK,Ctrl,no signal,0/6
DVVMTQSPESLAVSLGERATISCKSSQSVLYESRNKNSVAWYQQKAGQPPKLLIYWASIRFSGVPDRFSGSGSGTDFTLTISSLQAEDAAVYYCQQYARLPLSFGGGTKVEIK,Ctrl,no signal,0/6
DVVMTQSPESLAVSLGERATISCKSSQSVLYESRLKNSVAWYQQKAGQPPKLLIYWATTRESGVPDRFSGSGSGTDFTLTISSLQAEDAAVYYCQQYHRLPLFFGGGTKVEIK,Ctrl,no signal,0/6

Source: Li et al. 2023 (doi:10.1038/s41467-023-39022-2), MIT Lincoln Laboratory and A-Alpha Bio; data file from the FLAb repository.